# Tested on: cPLA2
# Format: cell-based
# Conditions: 200 μM nicotinic acid, control siRNA
smiles,measurement,value
"O=C(O)c1cccnc1 [nicotinic acid, Nicotinic acid]",phosphorylated cPLA2 after stimulation,increase in phosphorylated cPLA2

# Source: patent US20110071198A1, “NICOTINIC ACID RECEPTOR LIGANDS” (priority 2008, published 2011)
